The entries are a selection whose mix differs from that of the whole data set. Inconclusive results are not listed. Calls of active or inactive are those of the source. The call rests on the fitted dose curve.
How the values were obtained:
[1] = target: 5-hydroxytryptamine receptor 2A (Homo sapiens) (UniProt P28223); experiment: 5-hydroxytryptamine receptor 2A (HTR2A) small molecule agonists, cell-based qHTS assay (AID 1963587); further: nearly all actives have a fitted effect of over 30% in size
Procedure, shortened: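 Kinetic calcium-flux fluorescence (2 min, 1 sec intervals) after compound addition in agonist mode. HTR2A-CHO cells were cultured 18 h, then dye-loaded 1 h at 37 C.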

By UniProt entry, the sequences of proteins in these tests, tags left out.
UniProt P28223, whole entry, looked up: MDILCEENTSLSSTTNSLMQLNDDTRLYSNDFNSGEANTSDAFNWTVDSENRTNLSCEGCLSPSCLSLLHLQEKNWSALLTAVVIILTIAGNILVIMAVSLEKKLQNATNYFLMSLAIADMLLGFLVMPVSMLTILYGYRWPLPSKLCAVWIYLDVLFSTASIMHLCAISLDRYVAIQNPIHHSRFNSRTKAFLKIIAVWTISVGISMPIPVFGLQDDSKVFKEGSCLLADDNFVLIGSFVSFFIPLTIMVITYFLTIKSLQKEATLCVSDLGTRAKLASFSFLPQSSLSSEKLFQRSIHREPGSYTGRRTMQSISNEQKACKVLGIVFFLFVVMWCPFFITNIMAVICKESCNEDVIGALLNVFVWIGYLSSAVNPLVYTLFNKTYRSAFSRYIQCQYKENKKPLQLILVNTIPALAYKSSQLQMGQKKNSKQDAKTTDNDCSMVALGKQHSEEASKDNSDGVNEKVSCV

[2] = target: 5-hydroxytryptamine receptor 2A (Homo sapiens) (UniProt P28223); experiment: 5-hydroxytryptamine receptor 2A (HTR2A) small molecule antagonists, cell-based qHTS assay (AID 1963586); further: nearly all actives have a fitted effect of over 45% in size
Source text: National Center for Advancing Translational Sciences [NCATS]
Division of Preclinical Innovation [DPI]
U.S. Environmental Protection Agency [EPA]
National Institutes of Environmental Health Sciences [NIEHS]
National Toxicology Program [NTP]
U.S. Food and Drug Administration [FDA]
The HTR2A receptor is a subtype of the 5-HT2 receptor that belongs to the serotonin receptor family and is a G protein-coupled receptor (GPCR). The HTR2A-CHO cell line stably expressing human 5-hydroxytryptamine receptor 2A (HTR2A) can be used for screening antagonists of interactions between 5-HT2 and its ligands. The HTR2A-CHO calcium flux assay is a homogeneous fluorescence-based assay for detecting the intracellular calcium level using FDSS kinetic plate reader system.
Tox21 Assay Protocol Summary:
HTR2A-CHO cells were dispensed at 2000 cells/3uL/well in 1536-well black-clear bottom plates using a Multidrop Dispenser. After the assay plates were incubated at a 37 C/5% CO2 incubator for 18 h, 3 uL of Dye Loading Buffer was transferred to the assay plate by a Flying Reagent Dispenser. The assay plates were incubated at 37 C for 1h. For antagonist mode, 23 nL of compounds dissolved in DMSO, positive controls or DMSO only was transferred to the assay plate by a pin tool. […] The fluorescence intensity in the plates was measured using FDSS 7000EX kinetic plate reader for 3 min at 1 sec intervals.
Potency means the concentration at half of the fitted maximal effect.

Row | Structure (SMILES) | Potency [1] | Potency [2]
1 | O=C1NCN(c2ccccc2)C12CCN(CCCOc1ccc(F)cc1)CC2 | active: 8490 nM | 
2 | COc1ccc(OC)c(CC(C)N)c1 (stereo not given) | active: 66.2 nM | active: 71.6 nM
3 | CC(Cc1ccc(O)cc1)NCC(O)c1cc(O)cc(O)c1 (stereo not given) | inactive | inactive

From PubChem BioAssay (Tox21)
